Source: PMC3171605 (Bioorganic & medicinal chemistry letters, 2011)

Sequences of proteins named here, by UniProt entry; tags and fusion partners are left off.
UniProt P21554, whole entry, species assumed: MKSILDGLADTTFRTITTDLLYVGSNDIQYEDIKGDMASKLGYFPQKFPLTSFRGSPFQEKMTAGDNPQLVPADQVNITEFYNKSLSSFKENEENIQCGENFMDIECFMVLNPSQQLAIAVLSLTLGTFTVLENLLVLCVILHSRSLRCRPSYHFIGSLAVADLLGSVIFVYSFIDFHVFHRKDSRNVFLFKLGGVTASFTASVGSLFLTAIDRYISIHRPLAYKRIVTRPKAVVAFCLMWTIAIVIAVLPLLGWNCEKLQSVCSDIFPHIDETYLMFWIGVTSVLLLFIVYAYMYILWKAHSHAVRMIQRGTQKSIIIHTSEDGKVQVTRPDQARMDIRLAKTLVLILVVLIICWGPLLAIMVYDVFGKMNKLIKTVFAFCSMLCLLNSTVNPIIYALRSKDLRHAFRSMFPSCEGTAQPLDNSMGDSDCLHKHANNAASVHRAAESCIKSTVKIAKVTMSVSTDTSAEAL

Target: CB1 (Homo sapiens, UniProt P21554)
Assay: Radioligand displacement of [3H]1
Assay type: binding

- Ki: ~10 nM
SMILES: Cc1c(C(=O)NCC2CCC(CNS(N)(=O)=O)CC2)nn(-c2ccc(Cl)cc2Cl)c1-c1ccc(Cl)cc1 (mixture of isomers) [Compound 21]
